Test results published in ChEMBL document CHEMBL4052797, “N-alkyl-[1,1'-biphenyl]-2-sulfonamide derivatives as novel broad spectrum anti-epileptic drugs with efficacy equivalent to that of sodium valproate” (2017).

System: Mus musculus
Assay: Therapeutic index, ratio of TD50 for neurotoxicity in po dosed mouse to ED50 for po dosed 6-Hz induced seizure mouse model

## CCCC(CCC)C(=O)[O-].[Na+] [VALPROATE SODIUM]
  Ratio TD50/ED50: 1
